Literature values as cited in PMC8210154, “Tumor-selective, antigen-independent delivery of a pH sensitive peptide-topoisomerase inhibitor conjugate suppresses tumor growth without systemic toxicity” (NAR Cancer, 2021).

Tested on: JIMT-1 xenografts
Parameters: method as in PMID 27026201
Conditions: highest ADC doses; cited from earlier work

DS-8201
efficacy in JIMT-1 model: only modest efficacy
